The chains behind the UniProt entries cited, without tags or fusion partners. Where a name states a change or a piece, a line headed by the entry shows the natural chain unless it says otherwise.
UniProt Q9Y233: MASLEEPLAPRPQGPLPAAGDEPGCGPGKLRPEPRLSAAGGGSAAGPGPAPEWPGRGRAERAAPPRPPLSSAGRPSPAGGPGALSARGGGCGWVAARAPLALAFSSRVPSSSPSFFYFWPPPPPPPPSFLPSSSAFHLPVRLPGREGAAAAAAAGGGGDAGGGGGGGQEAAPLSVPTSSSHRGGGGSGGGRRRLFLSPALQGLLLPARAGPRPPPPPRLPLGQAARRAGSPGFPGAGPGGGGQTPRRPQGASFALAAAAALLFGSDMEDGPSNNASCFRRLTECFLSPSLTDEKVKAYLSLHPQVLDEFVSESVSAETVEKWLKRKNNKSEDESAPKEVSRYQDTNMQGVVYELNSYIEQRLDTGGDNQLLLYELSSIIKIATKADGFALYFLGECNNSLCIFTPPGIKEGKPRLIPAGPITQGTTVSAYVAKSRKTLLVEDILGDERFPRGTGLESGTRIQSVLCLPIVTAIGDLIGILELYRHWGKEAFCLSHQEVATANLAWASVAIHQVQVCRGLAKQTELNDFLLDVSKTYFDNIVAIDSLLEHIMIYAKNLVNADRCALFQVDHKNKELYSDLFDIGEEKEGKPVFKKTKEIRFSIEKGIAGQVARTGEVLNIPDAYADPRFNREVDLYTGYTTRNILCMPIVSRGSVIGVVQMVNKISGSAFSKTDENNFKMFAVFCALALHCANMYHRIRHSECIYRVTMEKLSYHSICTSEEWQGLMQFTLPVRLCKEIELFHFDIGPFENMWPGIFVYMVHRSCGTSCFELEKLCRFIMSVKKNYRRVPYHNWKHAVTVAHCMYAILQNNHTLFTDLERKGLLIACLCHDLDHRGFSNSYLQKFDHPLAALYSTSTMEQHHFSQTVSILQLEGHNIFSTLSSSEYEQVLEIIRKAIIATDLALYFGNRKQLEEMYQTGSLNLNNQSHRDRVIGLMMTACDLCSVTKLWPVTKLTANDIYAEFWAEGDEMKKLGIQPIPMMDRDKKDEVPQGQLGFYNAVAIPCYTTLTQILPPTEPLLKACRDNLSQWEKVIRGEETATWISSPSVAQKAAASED

According to ChEMBL document CHEMBL5729263, “Treatment of tachycardia” (2022):

Target: cAMP and cAMP-inhibited cGMP 3',5'-cyclic phosphodiesterase 10A (Homo sapiens, UniProt Q9Y233)

| Structure (SMILES) | IC50 |
| --- | --- |
| CCCCOc1ccc(Cl)c(-c2nnc3c(C)nc4ccc(CN5CCOCC5)cc4n23)c1 | 1620 nM |
| CCNC(=O)c1ccc2nc(C)c3nnc(-c4ccccc4Cl)n3c2c1 | 21 nM |
